# Experimental data taken from patent publication US11541030B2, “Methods for the treatment of inflammation associated with infection” (NOXOPHARM LIMITED, priority 2020, dated 2023).
# By UniProt entry, the sequences of proteins in these tests, tags left out.
# UniProt Q86WV6, whole entry H232R/R284S: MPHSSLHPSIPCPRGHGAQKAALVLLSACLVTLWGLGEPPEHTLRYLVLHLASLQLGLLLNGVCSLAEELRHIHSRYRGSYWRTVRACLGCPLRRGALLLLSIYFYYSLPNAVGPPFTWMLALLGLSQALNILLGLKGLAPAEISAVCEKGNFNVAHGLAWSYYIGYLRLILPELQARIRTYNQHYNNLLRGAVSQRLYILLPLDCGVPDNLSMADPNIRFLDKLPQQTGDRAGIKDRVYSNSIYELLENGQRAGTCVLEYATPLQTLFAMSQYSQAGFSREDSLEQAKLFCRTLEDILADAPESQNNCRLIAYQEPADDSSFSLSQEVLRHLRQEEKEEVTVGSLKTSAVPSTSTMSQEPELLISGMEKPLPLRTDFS
# Columns and labels:
# human STING R284S mutant = human STING R284S mutant (Homo sapiens, UniProt Q86WV6, R284S); assay: IP-10 ELISA in THP-1 cells with Dox-inducible STING R284S; conditions: THP-1, 2.5 uM for 1 h prior to overnight Dox
# R284S STING mutant = R284S STING mutant (Homo sapiens, UniProt Q86WV6, R284S); assay: IP-10 ELISA in mouse iBMMs with Dox-inducible STING R284S; conditions: 2.5 uM pre-treatment 1 h, overnight Dox
smiles,measurement,setting,value
"Oc1ccc(C2=Cc3ccc(O)cc3OC2)cc1 [IDX, 2H-1-Benzopyran-7-0,1,3-(4-hydroxyphenyl)]",IP-10 (IRF3 branch) induced by STING R284S expression,human STING R284S mutant,significantly reduce
same,IP-10 induction by STING R284S,R284S STING mutant,blunted
